{"source": "PubChem BioAssay (EPA / NIEHS)", "key": {"[1]": {"target": "human Phosphodiesterase 10 (PDE10), PDE10A (gene 10846) (UniProt Q9Y233)", "experiment": "NVS_ENZ_hPDE10: NovaScreen (NVS) Enzymatic Assay for human Phosphodiesterase 10 (PDE10) (AID 2283195)", "outline": "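Fluorescence readout after mobility-shift separation of substrate and product, 1 h reaction with recombinant human enzyme. Single-concentration duplicates at 25 uM, then concentration-response up to 50 uM for chemicals reaching threshold; DMSO baseline.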"}, "[2]": {"target": "human Phosphoinositide 3-kinase alpha (PI3Ka), PIK3CA (gene 5290) (UniProt P42336)", "experiment": "NVS_ENZ_hPI3Ka: NovaScreen (NVS) Enzymatic Assay for human Phosphoinositide 3-kinase alpha (PI3Ka) (AID 2283196)", "outline": "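Duplicate single-point screen (25 uM), then singleton dose-response (max 50 uM) for compounds meeting the threshold. Cell-free kinase reaction, 1 h; fluorescent mobility-shift readout.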"}, "[3]": {"target": "human Dual Specificity Protein Phosphatase 3 (DUSP3), DUSP3 (gene 1845) (UniProt P51452)", "experiment": "NVS_ENZ_hDUSP3: NovaScreen (NVS) Enzymatic Assay for human Dual Specificity Protein Phosphatase 3 (DUSP3) (AID 2283152)", "outline": "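Cell-free fluorescence-intensity enzyme activity assay with recombinant protein and substrate; loss of signal fitted relative to DMSO baseline. Primary screen in duplicate at 25 uM, actives then run in concentration series; measured 0 h after dosing.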"}, "[4]": {"target": "human Elastase, ELANE (gene 1991) (UniProt P08246)", "experiment": "NVS_ENZ_hElastase: NovaScreen (NVS) Enzymatic Assay for human Elastase (AID 2283153)", "outline": "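Concentration-response to 50 uM max, run singly for chemicals passing a threshold (e.g., 30% inhibition) in a duplicate 25 uM single-point screen. Neutrophil-derived human elastase, absorbance read-out of enzyme activity at 1.5 h; DMSO baseline.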"}, "[5]": {"target": "human Esterase Plasma (ES), BCHE (gene 590) (UniProt P06276)", "experiment": "NVS_ENZ_hES: NovaScreen (NVS) Enzymatic Assay for human Esterase Plasma (ES) (AID 2283157)", "outline": "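Primary single-concentration screen at 25 uM in duplicate, then concentration-response to a 50 uM top dose. Human plasma esterase activity detected colorimetrically after 0.25 h incubation, with DMSO as baseline.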"}, "[6]": {"target": "human Mitogen- and Stress-activated Protein Kinase-1 (Msk1), RPS6KA5 (gene 9252) (UniProt O75582)", "experiment": "NVS_ENZ_hMsk1: NovaScreen (NVS) Enzymatic Assay for human Mitogen- and Stress-activated Protein Kinase-1 (Msk1) (AID 2283187)", "outline": "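Chemicals first run in duplicate at 25 uM, with actives followed up in singleton concentration series to 50 uM maximum. Enzyme activity came from substrate/product mobility-shift separation with fluorescence detection after 1 h incubation of the recombinant protein.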"}, "[7]": {"target": "human Ephrin type-A Receptor 2 (EphA2), EPHA2 (gene 1969) (UniProt P29317)", "experiment": "NVS_ENZ_hEphA2: NovaScreen (NVS) Enzymatic Assay for human Ephrin type-A Receptor 2 (EphA2) (AID 2283155)", "outline": "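Enzyme activity of recombinant EphA2 read by fluorescence after mobility-shift separation, 1 h after dosing. Chemicals first tested at 25 uM (duplicate); those passing threshold run as concentration series, top 50 uM, single replicate, relative to DMSO.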"}, "[8]": {"target": "human Ephrin type-A Receptor 1 (EphA1), EPHA1 (gene 2041) (UniProt P21709)", "experiment": "NVS_ENZ_hEphA1: NovaScreen (NVS) Enzymatic Assay for human Ephrin type-A Receptor 1 (EphA1) (AID 2283158)", "outline": "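Chemicals first tested in duplicate at 25 uM against recombinant EphA1 with a fluorescent substrate; those passing threshold went to singleton dose-response topping at 50 uM. Activity read 1 h later as mobility-shift fluorescence, loss of signal relative to DMSO.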"}, "[9]": {"target": "human Fibroblast Growth Factor Receptor 1 (FGFR1), FGFR1 (gene 2260) (UniProt P11362)", "experiment": "NVS_ENZ_hFGFR1: NovaScreen (NVS) Enzymatic Assay for human Fibroblast Growth Factor Receptor 1 (FGFR1) (AID 2283159)", "outline": "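Cell-free recombinant kinase with fluorescent substrate, product separated by electrophoretic mobility shift; read 1 hour after dosing, loss of signal relative to DMSO. Initial screen in duplicate at 25 uM, actives followed in concentration series.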"}, "[10]": {"target": "human Mitogen-Activated Protein Kinase 1 (MAPK 1), MAPK1 (gene 5594) (UniProt P28482)", "experiment": "NVS_ENZ_hMAPK1: NovaScreen (NVS) Enzymatic Assay for human Mitogen-Activated Protein Kinase 1 (MAPK 1) (AID 2283175)", "outline": "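Cell-free recombinant human MAPK1 enzymatic assay, fluorescence/electrophoretic mobility shift read at 1 h; loss of signal vs DMSO. Primary screen in duplicate at 25 uM; actives (e.g. ≥30% inhibition) run as concentration-response up to 50 uM.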"}, "[11]": {"target": "human NIMA (Never In Mitosis Gene A)-Related Kinase 2 (NEK2), NEK2 (gene 4751) (UniProt P51955)", "experiment": "NVS_ENZ_hNEK2: NovaScreen (NVS) Enzymatic Assay for human NIMA (Never In Mitosis Gene A)-Related Kinase 2 (NEK2) (AID 2283188)", "outline": "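Compounds were first screened in duplicate at 25 uM, with actives followed up in concentration series. Recombinant NEK2 activity, cell-free, was read 1 h after dosing by fluorescence intensity after mobility-shift separation. Signal loss was scored against DMSO.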"}, "[12]": {"target": "human Matrix Metalloproteinase-9 (MMP9), MMP9 (gene 4318) (UniProt P14780)", "experiment": "NVS_ENZ_hMMP9: NovaScreen (NVS) Enzymatic Assay for human Matrix Metalloproteinase-9 (MMP9) (AID 2283190);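 note: active means inhibition seen as loss of fluorescence signal versus DMSO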", "outline": "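Screening concentration 25 uM, duplicate wells, then dose series for confirmation. Cell-free enzymatic reaction measured by fluorescence intensity 1 h post-dosing; decreased signal versus DMSO taken as activity.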"}, "[13]": {"target": "Serine/threonine-protein phosphatase PP1-alpha catalytic subunit (Homo sapiens) (UniProt P62136)", "experiment": "NVS_ENZ_hPPP1CA: NovaScreen (NVS) Enzymatic Assay for human Protein Phosphatase 1 Aatalytic subunit Alpha (PPP1CA) (AID 2283200)", "outline": "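Chemicals were first screened in duplicate at 25 uM, and those passing threshold (e.g. 30% inhibition) were run as concentration series to 50 uM. Cell-free recombinant protein, 1.33 h read, fluorescent substrate/product mobility-shift detection, normalised to DMSO.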"}, "[14]": {"target": "human Ephrin type-B Receptor 2 (EphB2), EPHB2 (gene 2048) (UniProt P29323)", "experiment": "NVS_ENZ_hEphB2: NovaScreen (NVS) Enzymatic Assay for human Ephrin type-B Receptor 2 (EphB2) (AID 2283156)", "outline": "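Compounds were first tested in duplicate at 25 uM, with hits rerun singly in concentration series up to 50 uM. Enzyme activity on fluorescent substrate was read at 1 h by mobility-shift separation, scored as signal loss relative to DMSO.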"}, "[15]": {"target": "Glycogen synthase kinase-3 beta (Homo sapiens) (UniProt P49841)", "experiment": "NVS_ENZ_hGSK3b: NovaScreen (NVS) Enzymatic Assay for human Glycogen Synthase Kinase-3 beta (GSK3b) (AID 2283165)", "outline": "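Recombinant enzyme with specific fluorescent substrate, 1 h, product separated by electrophoretic mobility shift. Primary duplicate screen at 25 uM; actives (e.g. 30% inhibition) followed in singleton concentration-response to 50 uM. Signal loss fitted versus DMSO.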"}, "[16]": {"target": "human IkappaB Kinase alpha (IKKa), CHUK (gene 1147) (UniProt O15111)", "experiment": "NVS_ENZ_hIKKa: NovaScreen (NVS) Enzymatic Assay for human IkappaB Kinase alpha (IKKa) (AID 2283167)", "outline": "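Compounds first run in duplicate at 25 uM, those meeting threshold (e.g. 30% inhibition) retested to maximum 50 uM. Enzyme activity of recombinant IKKa measured by fluorescence with electrophoretic mobility shift separation, 1 hour post-dosing, DMSO baseline.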"}, "[17]": {"target": "human Matrix Metalloproteinase-7 (MMP7), MMP7 (gene 4316) (UniProt P09237)", "experiment": "NVS_ENZ_hMMP7: NovaScreen (NVS) Enzymatic Assay for human Matrix Metalloproteinase-7 (MMP7) (AID 2283183)", "outline": "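Compounds first tested at 25 uM in duplicate, then at up to 50 uM in concentration series if active. Protease activity measured by fluorescence intensity 1 h after dosing, with fitting relative to DMSO.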"}, "[18]": {"target": "human p21 Activated Kinase 4 (PAK4), PAK4 (gene 10298) (UniProt O96013)", "experiment": "NVS_ENZ_hPAK4: NovaScreen (NVS) Enzymatic Assay for human p21 Activated Kinase 4 (PAK4) (AID 2283189)", "outline": "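Extracted PAK4 enzyme activity read by fluorescence with mobility-shift separation 1 h after chemical addition. Duplicate single-concentration screen at 25 uM, DMSO as negative control.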"}, "[19]": {"target": "cAMP-dependent protein kinase catalytic subunit alpha (Homo sapiens) (UniProt P17612)", "experiment": "NVS_ENZ_hPKA: NovaScreen (NVS) Enzymatic Assay for human Protein Kinase A (PKA) (AID 2283192)", "outline": "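Cell-free kinase activity read by fluorescence after mobility-shift separation of substrate and product, 1 h post-dosing. Single-concentration duplicate screen (25 uM) preceded singleton concentration series (top 50 uM); loss of signal versus DMSO.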"}, "[20]": {"target": "human Phosphodiesterase 5 (PDE5), PDE5A (gene 8654) (UniProt O76074)", "experiment": "NVS_ENZ_hPDE5: NovaScreen (NVS) Enzymatic Assay for human Phosphodiesterase 5 (PDE5) (AID 2283194)", "outline": "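Screening began in duplicate at 25 uM, with actives taken into concentration-response. Enzyme activity of recombinant PDE5 toward its substrate was measured at 1 h by fluorescence mobility-shift detection, relative to DMSO controls.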"}}, "note": "This is a selection; strong and weak results do not stand in their true shares. Inconclusive results are not listed. The source made the active and inactive calls. Rule for the calls: active = hit-call score of the fitted dose curve at least 0.9, where 1 is the maximum; inconclusive = response in the unintended direction; inactive = score below 0.9."}
{"molecule": "CCCCO[P+](=O)OCCCC", "values": [{"measurement": "outcome", "setting": "[1]", "value": "inactive"}, {"measurement": "outcome", "setting": "[2]", "value": "inactive"}]}
{"molecule": "CCCCOP(OCCCC)OCCCC", "values": [{"measurement": "outcome", "setting": "[1]", "value": "inactive"}]}
{"molecule": "CN(C(=O)Cc1cccc2occc12)[C@H]1CC[C@@]2(CCCO2)C[C@@H]1N1CCCC1", "values": [{"measurement": "AC50", "setting": "[3]", "value": "active: 14.8 µM"}, {"measurement": "outcome", "setting": "[4]", "value": "inactive"}, {"measurement": "AC50", "setting": "[5]", "value": "active: 21.9 µM"}, {"measurement": "outcome", "setting": "[6]", "value": "inactive"}]}
{"molecule": "CC(C)OP(=S)(OC(C)C)SCCNS(=O)(=O)c1ccccc1", "values": [{"measurement": "outcome", "setting": "[7]", "value": "inactive"}, {"measurement": "outcome", "setting": "[8]", "value": "inactive"}, {"measurement": "outcome", "setting": "[9]", "value": "inactive"}, {"measurement": "outcome", "setting": "[10]", "value": "inactive"}, {"measurement": "outcome", "setting": "[11]", "value": "inactive"}, {"measurement": "outcome", "setting": "[12]", "value": "inactive"}, {"measurement": "outcome", "setting": "[2]", "value": "inactive"}, {"measurement": "outcome", "setting": "[13]", "value": "inactive"}]}
{"molecule": "Cc1cc([N+](=O)[O-])cc([N+](=O)[O-])c1O", "values": [{"measurement": "outcome", "setting": "[14]", "value": "inactive"}, {"measurement": "outcome", "setting": "[8]", "value": "inactive"}, {"measurement": "outcome", "setting": "[9]", "value": "inactive"}, {"measurement": "outcome", "setting": "[15]", "value": "inactive"}, {"measurement": "outcome", "setting": "[16]", "value": "inactive"}, {"measurement": "outcome", "setting": "[17]", "value": "inactive"}, {"measurement": "outcome", "setting": "[6]", "value": "inactive"}, {"measurement": "outcome", "setting": "[18]", "value": "inactive"}, {"measurement": "outcome", "setting": "[19]", "value": "inactive"}, {"measurement": "outcome", "setting": "[20]", "value": "inactive"}, {"measurement": "outcome", "setting": "[13]", "value": "inactive"}]}
